We go through one compound from patent publication US20240358829A1, “Lymphocyte Population and Methods for Producing Same” (AVM Biotechnology, LLC, priority 2021, published 2024).

This experiment deals with MOPC315 Multiple Myeloma cells. As to conditions: not statistically significant.

Turning to `C[C@@H]1C[C@H]2[C@@H]3CCC4=CC(=O)C=C[C@]4(C)[C@@]3(F)[C@@H](O)C[C@]2(C)[C@@]1(O)C(=O)COP(=O)(O)O` [AVM0703, dexamethasone sodium phosphate], the “live MOPC315 in blood and bone marrow” value (AVM0703 preconditioning followed by ACT) is on record as “trends of reduced live MOPC315”. Where the note is “preconditioning with 18 mg/kg HED AVM0703 followed by ACT of cells from placebo treated mice”, the “live MOPC315 cells” value is on record as “trends towards reduced live MOPC315 cells”.
